Assay results from US11786555B2, “RAR selective agonists in combination with immune modulators for cancer immunotherapy” (IO THERAPEUTICS, INC., priority 2017, dated 2023).

Tested on: BM stromal cells
Assay: CYP26A1 expression in BM stromal cells exposed to soluble factors
Format: cell-based
Conditions: soluble factors tested
Description: qRT-PCR. Total RNA was extracted using the RNeasy Mini Kit (QIAGEN) according to the manufacturer's instructions. cDNA was synthesized by reverse transcription using the iScript cDNA Synthesis Kit (Bio-Rad). qRT-PCR was performed with iTaq SYBR Green Supermix (Bio-Rad) using sequence specific primers. Gene expression was normalized to GAPDH, and relative quantification was calculated using ΔΔCt. All experiments were performed in duplicate and run on the Bio-Rad CFX96 machine.
MM cells produce a variety of soluble factors including cytokines (IL-1, IL-3, IL-6, TNF-α) as well as Hedgehog ligands such as sonic hedgehog (SHH), which could impact the BM stromal compartment. Therefore, it was determined whether any of these factors was responsible for the observed upregulation of CYP26A1 on BM stromal cells. […] Consistent with this, there was a statistically significant correlation between the mRNA levels of SHH in MM cells and activation of stromal Hedgehog signaling as determined by protein patched homolog 1 (PTCH1) expression. […] SHH has a half-life of less than 1 hr, which may explain the reduced effect of MM-conditioned media on stromal CYP26A1 expression compared with that observed in coculture and Transwell experiments.

B1: IL-3: cytokine, soluble factor produced by MM cells (protein, UniProt P08700 20-152, looked up)
Interleukin-3: APMTQTTPLKTSWVNCSNMIDEIITHLKQPPLPLLDFNNLNGEDQDILMENNLRRPNLEAFNRAVKSLQNASAIESILKNLLPCLPLATAAPTRHPIHIKDGDWNEFRRKLTFYLKTLENAQAQQTTLSLAIF
expression of CYP26A1 on BM stromal cells: no significant effects
